Test system: DA receptors in the brain
Assay: Block of apomorphine-induced hyperactivity in the rat
Format: in vivo, Male Sprague-Dawley rats
Details: p.o.

In the case of `CCN1CCCC1CNC(=O)c1cc(S(N)(=O)=O)ccc1OC` (stereo not shown) [Sulpiride, reference compound], the “potency to block apomorphine, ED50 Hyperactivity” value was > 586 µmol/kg.
